Data published in PubChem BioAssay AID1347419 (Sanford-Burnham Center for Chemical Genomics, 2020).
The list shows a part of the results, in another mix than the full data. Activity calls are given as the source filed them.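 The calls were made as follows: active = Z-score of -3 or lower, scaled per plate to the spread of control and sample wells; inactive = z-score above -3.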

The chains behind the UniProt entries cited, without tags or fusion partners.
UniProt Q14289, whole entry, looked up: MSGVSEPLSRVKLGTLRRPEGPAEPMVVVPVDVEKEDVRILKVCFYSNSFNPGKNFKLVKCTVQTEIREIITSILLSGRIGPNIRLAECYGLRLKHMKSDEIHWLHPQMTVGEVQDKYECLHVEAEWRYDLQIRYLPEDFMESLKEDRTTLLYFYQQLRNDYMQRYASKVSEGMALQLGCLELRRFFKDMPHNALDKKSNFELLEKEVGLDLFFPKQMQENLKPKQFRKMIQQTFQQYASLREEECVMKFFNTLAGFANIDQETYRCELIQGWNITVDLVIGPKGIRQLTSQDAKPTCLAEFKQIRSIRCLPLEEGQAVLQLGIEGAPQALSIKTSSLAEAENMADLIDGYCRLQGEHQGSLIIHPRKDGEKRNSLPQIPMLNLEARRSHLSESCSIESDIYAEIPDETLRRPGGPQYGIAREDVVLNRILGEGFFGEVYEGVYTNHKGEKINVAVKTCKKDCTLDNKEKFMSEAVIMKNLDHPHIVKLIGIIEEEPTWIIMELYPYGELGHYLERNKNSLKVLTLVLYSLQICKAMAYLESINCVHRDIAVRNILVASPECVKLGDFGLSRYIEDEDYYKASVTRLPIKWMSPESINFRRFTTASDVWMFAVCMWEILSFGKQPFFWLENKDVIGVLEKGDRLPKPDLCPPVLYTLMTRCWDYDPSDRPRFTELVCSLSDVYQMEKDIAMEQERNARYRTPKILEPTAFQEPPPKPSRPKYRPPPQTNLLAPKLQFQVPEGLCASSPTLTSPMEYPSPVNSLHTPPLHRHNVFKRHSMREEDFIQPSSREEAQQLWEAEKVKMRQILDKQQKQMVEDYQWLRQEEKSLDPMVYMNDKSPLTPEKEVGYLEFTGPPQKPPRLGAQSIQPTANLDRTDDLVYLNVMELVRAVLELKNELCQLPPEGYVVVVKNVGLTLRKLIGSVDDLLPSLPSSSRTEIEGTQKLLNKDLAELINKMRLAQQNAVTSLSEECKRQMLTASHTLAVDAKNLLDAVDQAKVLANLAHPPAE

Molecular target: Protein-tyrosine kinase 2-beta (Homo sapiens) (UniProt Q14289)
Experiment: Pyk2 FERM oligomerization blockers – Q293 cells, FERM NanoBiT luminescence, HTS, primary screen (AID 1347419);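 also: the deposit names both 25 µM and 10 µM; negative z-score means lost luminescence so less FERM oligomerization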
Parameters: dose or concentration left out as unconfirmed
Conditions: active compounds read low

SMILES	z-score
CP(=O)(Oc1ccccc1)N1CCOC1=O (centres undefined)	inactive: -0.49
COc1ccccc1OP(C)(=O)Nc1c(C)n(C)n(-c2ccccc2)c1=O (centres undefined)	inactive: 0.47
CCN(CC)CC(O)COC(=O)C(O)(c1ccccc1)C1CCCCC1 (centres undefined)	inactive: 0.08
CP(=O)(Nc1ccc(Cl)cc1)Oc1ccc(F)cc1 (centres undefined)	inactive: 1.8
CC(C)(C)c1ccc(OP(C)(=O)O)cc1	inactive: 1.17
CP(=O)(OC12CC3CC(CC(C3)C1)C2)OC12CC3CC(CC(C3)C1)C2	inactive: 0.26
CCOC(=O)c1ccc(NP(C)(=O)Oc2ccc(Cl)cc2)cc1 (centres undefined)	inactive: -0.65
COc1ccccc1OP(C)(=O)Nc1ccc(C)c(C)c1 (centres undefined)	inactive: 0.49
CN(C)CCOC(=O)C(O)(c1ccccc1)C1CCCC1 (centres undefined)	inactive: 0.47
COc1ccc(OP(C)(=O)Nc2ccccn2)cc1 (centres undefined)	inactive: 0.71
CCc1ccc(OP(C)(=O)O)cc1	inactive: 0.47
CP(=O)(Nc1ccccn1)Oc1ccccc1 (centres undefined)	inactive: 0.52
COc1ccccc1OP(C)(=O)Nc1ccc(C)cc1C (centres undefined)	inactive: 1.1
Cc1c(NP(C)(=O)Oc2ccc(C(C)C)cc2)c(=O)n(-c2ccccc2)n1C (centres undefined)	inactive: 0.91
CP(=O)(Nc1ccccc1F)Oc1ccccc1 (centres undefined)	inactive: -0.13
CP(=O)(Nc1ccccc1)Oc1ccc(F)cc1 (centres undefined)	inactive: -0.58
CCN(CC)CCCOC(=O)C(O)(c1ccccc1)C1CCCCC1 (centres undefined)	inactive: 0.19

SMILES	z-score
CN(C)CCOC(=O)C(O)(c1ccccc1)C1CCCCC1 (centres undefined)	inactive: -0.73
COc1ccc(OP(C)(=O)Nc2cccc(Br)c2)cc1 (centres undefined)	inactive: -1.06
CCOP(C)(=S)SCC(=O)NC(C)(CC)C(=O)O (centres undefined)	inactive: 0.68
Cc1ccccc1NP(C)(=O)Nc1ccccc1C	inactive: 0.51
CP(=O)(Nc1ccc2c(c1)OCCO2)Oc1ccccc1 (centres undefined)	inactive: -0.34
Cc1nc2ccc3ccccc3c2s1.O=[N+]([O-])c1cc([N+](=O)[O-])c(O)c([N+](=O)[O-])c1	inactive: -0.88
COc1ccccc1OP(C)(=O)Nc1c(C)cccc1C (centres undefined)	inactive: -0.37
Cc1cc(C)cc(OP(C)(=O)Nc2ccc(C)cc2C)c1 (centres undefined)	inactive: 0.28
Cc1cc(C)cc(OP(C)(=O)Nc2ccccn2)c1 (centres undefined)	inactive: 0.84
Cc1ccc(C)c(NP(C)(=O)Oc2ccccc2)c1 (centres undefined)	inactive: 0.51
COc1ccc(OP(C)(=O)Nc2cccc(F)c2)cc1 (centres undefined)	inactive: 0.22
COc1ccccc1OP(C)(=O)Nc1ccc(C)cc1 (centres undefined)	inactive: 2.29
Cc1ccc(NP(C)(=O)Oc2ccccc2)c(C)c1 (centres undefined)	inactive: -0.32
CP(=S)(Nn1cnnc1)Oc1ccccc1 (centres undefined)	inactive: -0.23
CP(=O)(NC(=O)Nc1ccccc1)Oc1ccccc1 (centres undefined)	inactive: 1.14
CP(=O)(Nc1ccccn1)Oc1ccc(Cl)cc1 (centres undefined)	inactive: 0.08
CCOP(C)(=S)SCC(=O)NC(C)C(=O)O (centres undefined)	inactive: 0.22
